Data taken from patent US20050101640A1 (Recordati Ireland Limited, priority 2002, published 2005).

System: uninephrectomized anesthetized rats, renal ischemia/reperfusion hypertension
Assay: Model of acute angiotensin-mediated renal hypertension in anesthetized rats (Example VI, with HCTZ)
Assay type: in vivo, Sprague-Dawley rats
Settings: time 125 min, 5 min after reperfusion, at drug administration (reference value); mean ± S.E.M.
From the text: The animals were tracheotomized to facilitate spontaneous breathing.
Silk threads were placed around both vessels and ureter. The cavity was then covered with Vaseline oil.
Results are expressed as mean values ±S.E in the tables and as mean values ±S.E. and Δ±S.E. changes in the figures.

Question: `COC(=O)C1=C(C)NC(C)=C(C(=O)OC(C)(C)CN(C)CCC(c2ccccc2)c2ccccc2)C1c1cccc([N+](=O)[O-])c1` (stereo not shown) [lercanidipine, methyl 1,1,N-trimethyl-N-(3,3-diphenylpropyl)-2-aminoethyl 1,4-dihydro-2,6-dimethyl-4-(3-nitrophenyl)pyridine-3,5-dicarboxylate] was tested. Which HR did it give?
Answer: Its HR is 378.0 ± 17.2 beats/min.
